# Experimental data from PubChem BioAssay AID571 (The Scripps Research Institute Molecular Screening Center, 2007).
# Protein sequences, listed by entry. Tags and fused reporters are not part of them.
# UniProt P28566, whole entry: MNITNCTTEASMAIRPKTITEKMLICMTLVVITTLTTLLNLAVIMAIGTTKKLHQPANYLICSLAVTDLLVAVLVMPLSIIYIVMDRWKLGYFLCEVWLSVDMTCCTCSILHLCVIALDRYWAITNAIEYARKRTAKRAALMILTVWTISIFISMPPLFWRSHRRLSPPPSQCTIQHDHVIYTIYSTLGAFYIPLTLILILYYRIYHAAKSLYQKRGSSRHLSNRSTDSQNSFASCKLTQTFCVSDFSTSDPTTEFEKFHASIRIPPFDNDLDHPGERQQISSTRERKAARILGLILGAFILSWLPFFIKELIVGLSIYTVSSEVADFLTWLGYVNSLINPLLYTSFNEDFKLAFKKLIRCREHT
# The list shows a part of the results, in another mix than the full data. The source made the active and inactive calls.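 The calls were made as follows: active = inhibition above a set limit, the mean inhibition across every tested compound plus 3 SD (cut at about 29% in these data); inactive = the rest.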
# Biological target: 5-hydroxytryptamine receptor 1E (Homo sapiens) (UniProt P28566)
# Assay: blockade of human serotonin 5HT1E receptor – cell-based, HTS, primary screen (AID 571);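 also: signal is the 460 over 535 nm emission ratio of beta-lactamase substrate; 0% = agonist plus DMSO wells and 100% = wells without agonist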
# Settings: CHO 5-HT1E Ga15 NFAT-bla reporter, FRET, antagonist; at 6 µM; hits give high values
row,SMILES,inhibition
1,Cc1nc2ccc3ccccc3c2o1.O=[N+]([O-])c1cc([N+](=O)[O-])c(O)c([N+](=O)[O-])c1,inactive: 3.5%
2,COc1ccccc1OP(C)(=O)Nc1ccc(C)c(C)c1 (stereo not drawn),inactive: -3.69%
3,CP(=O)(Nc1ccccn1)Oc1ccccc1 (stereo not drawn),inactive: 1.08%
4,CCN(CC)CC(O)COC(=O)C(O)(c1ccccc1)C1CCCCC1 (stereo not drawn),inactive: 0.56%
5,COc1ccccc1OP(C)(=O)Nc1c(C)n(C)n(-c2ccccc2)c1=O (stereo not drawn),inactive: 12%
6,CP(=O)(Oc1ccccc1)N1CCOC1=O (stereo not drawn),inactive: 13.5%
7,CN(C)CCOC(=O)C(O)(c1ccccc1)C1CCCCC1 (stereo not drawn),inactive: -3.3%
8,CP(=O)(Nc1ccc2c(c1)OCCO2)Oc1ccccc1 (stereo not drawn),inactive: -2.64%
9,Cc1ccccc1NP(C)(=O)Nc1ccccc1C,inactive: 6.85%
10,CCOP(C)(=S)SCC(=O)NC(C)(CC)C(=O)O (stereo not drawn),inactive: -3.19%
11,CP(=O)(Nc1ccccc1F)Oc1ccccc1 (stereo not drawn),inactive: -3.86%
12,Cc1ccc(C)c(NP(C)(=O)Oc2ccccc2)c1 (stereo not drawn),inactive: -1.86%
13,Cc1nc2ccc3ccccc3c2s1.O=[N+]([O-])c1cc([N+](=O)[O-])c(O)c([N+](=O)[O-])c1,inactive: -2.5%
14,CP(=S)(Nn1cnnc1)Oc1ccccc1 (stereo not drawn),inactive: 4.71%
15,CCOP(C)(=S)SCC(=O)NC(C)C(=O)O (stereo not drawn),inactive: -0.24%
16,CP(=O)(NC(=O)Nc1ccccc1)Oc1ccccc1 (stereo not drawn),inactive: 3.77%
17,COc1ccccc1OP(C)(=O)Nc1ccc(C)cc1 (stereo not drawn),inactive: -0.62%
18,Cc1ccc(NP(C)(=O)Oc2ccccc2)c(C)c1 (stereo not drawn),inactive: -1.7%
